Among the data in patent US11291666B2, “Uses” (INTRA-CELLULAR THERAPIES, INC., priority 2016, dated 2022) are IC50 values, retold here.

By UniProt entry, the sequences of proteins in these tests, tags left out. Where a name states a change or a piece, a line headed by the entry shows the natural chain unless it says otherwise.
UniProt Q13370: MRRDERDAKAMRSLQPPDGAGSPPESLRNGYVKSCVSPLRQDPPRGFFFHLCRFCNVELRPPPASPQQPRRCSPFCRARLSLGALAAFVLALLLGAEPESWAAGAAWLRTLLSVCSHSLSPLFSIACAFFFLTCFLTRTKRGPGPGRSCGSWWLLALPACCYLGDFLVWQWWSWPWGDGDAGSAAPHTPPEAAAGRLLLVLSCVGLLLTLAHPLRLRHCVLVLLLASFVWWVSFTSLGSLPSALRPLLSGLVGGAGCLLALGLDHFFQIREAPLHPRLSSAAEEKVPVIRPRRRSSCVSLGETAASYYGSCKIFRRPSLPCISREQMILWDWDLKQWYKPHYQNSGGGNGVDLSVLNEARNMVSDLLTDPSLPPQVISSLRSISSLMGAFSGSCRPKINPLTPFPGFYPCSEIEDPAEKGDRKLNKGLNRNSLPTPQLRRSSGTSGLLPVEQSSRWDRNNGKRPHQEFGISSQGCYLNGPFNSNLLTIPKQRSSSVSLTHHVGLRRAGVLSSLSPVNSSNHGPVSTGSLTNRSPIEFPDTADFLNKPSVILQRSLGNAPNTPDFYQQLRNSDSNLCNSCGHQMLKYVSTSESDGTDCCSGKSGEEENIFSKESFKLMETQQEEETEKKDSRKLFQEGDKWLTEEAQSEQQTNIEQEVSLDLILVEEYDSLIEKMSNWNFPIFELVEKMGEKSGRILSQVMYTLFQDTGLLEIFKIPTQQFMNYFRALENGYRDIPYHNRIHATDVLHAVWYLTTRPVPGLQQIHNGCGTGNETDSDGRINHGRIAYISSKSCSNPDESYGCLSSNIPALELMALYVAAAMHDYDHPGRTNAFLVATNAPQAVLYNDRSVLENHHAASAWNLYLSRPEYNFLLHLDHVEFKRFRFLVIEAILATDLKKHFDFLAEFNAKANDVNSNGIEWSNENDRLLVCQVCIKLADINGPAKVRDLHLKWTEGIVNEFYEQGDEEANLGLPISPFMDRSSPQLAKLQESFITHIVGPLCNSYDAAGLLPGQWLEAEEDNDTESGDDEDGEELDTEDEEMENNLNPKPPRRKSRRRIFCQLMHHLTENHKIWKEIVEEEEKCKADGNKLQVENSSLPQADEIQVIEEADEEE
UniProt O00408, whole entry: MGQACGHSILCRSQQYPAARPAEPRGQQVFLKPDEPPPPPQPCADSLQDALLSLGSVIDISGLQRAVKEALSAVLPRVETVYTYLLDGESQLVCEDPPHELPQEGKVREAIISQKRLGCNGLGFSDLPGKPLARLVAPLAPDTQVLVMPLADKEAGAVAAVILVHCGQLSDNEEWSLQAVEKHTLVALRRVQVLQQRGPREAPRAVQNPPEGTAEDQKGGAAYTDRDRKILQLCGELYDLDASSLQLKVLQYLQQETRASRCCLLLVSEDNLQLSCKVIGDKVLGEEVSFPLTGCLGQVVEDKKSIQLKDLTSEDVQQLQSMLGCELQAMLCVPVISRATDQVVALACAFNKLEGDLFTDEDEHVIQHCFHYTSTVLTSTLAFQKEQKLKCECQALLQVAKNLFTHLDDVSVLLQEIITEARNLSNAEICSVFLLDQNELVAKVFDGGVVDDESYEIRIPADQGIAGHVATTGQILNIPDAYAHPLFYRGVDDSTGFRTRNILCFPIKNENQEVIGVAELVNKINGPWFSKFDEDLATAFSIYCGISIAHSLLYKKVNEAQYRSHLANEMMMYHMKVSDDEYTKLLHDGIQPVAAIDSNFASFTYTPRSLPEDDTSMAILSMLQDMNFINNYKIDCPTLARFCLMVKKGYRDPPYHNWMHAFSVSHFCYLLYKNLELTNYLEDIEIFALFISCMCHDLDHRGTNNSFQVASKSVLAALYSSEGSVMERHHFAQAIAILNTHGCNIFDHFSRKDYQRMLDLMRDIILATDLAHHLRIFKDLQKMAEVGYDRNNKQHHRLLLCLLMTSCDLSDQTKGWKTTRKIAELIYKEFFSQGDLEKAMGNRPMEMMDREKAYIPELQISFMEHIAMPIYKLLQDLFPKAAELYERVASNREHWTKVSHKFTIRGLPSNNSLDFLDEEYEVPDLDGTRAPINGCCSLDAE
UniProt Q9NP56: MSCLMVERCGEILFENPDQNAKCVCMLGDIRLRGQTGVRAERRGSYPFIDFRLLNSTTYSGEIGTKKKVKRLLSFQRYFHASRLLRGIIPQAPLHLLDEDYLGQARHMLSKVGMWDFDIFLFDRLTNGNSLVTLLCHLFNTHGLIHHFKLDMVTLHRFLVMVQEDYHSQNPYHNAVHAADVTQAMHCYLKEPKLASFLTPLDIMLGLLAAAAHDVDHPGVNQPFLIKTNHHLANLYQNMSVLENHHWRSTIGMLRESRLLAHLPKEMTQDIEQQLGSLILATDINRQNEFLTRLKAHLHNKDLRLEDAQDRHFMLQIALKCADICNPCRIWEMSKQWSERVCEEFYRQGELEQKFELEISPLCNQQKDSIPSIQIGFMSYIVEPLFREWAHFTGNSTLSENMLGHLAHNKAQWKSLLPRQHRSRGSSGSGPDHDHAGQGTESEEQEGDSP
UniProt O76083: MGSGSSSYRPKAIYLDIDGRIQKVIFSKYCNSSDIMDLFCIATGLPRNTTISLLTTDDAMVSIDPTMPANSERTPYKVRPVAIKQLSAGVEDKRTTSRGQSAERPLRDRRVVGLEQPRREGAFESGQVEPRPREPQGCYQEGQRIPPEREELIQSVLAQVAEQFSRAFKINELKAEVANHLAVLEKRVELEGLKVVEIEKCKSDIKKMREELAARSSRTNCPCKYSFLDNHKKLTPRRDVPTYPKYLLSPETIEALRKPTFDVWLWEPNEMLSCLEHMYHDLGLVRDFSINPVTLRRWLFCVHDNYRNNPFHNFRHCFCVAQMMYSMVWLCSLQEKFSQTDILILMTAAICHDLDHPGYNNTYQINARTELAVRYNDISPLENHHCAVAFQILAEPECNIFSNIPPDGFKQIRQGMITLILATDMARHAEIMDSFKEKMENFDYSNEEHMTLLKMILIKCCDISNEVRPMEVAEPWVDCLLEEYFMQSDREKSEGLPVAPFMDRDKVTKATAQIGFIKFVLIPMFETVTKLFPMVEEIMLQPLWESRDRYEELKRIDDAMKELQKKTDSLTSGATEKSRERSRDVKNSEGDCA
UniProt Q9Y233: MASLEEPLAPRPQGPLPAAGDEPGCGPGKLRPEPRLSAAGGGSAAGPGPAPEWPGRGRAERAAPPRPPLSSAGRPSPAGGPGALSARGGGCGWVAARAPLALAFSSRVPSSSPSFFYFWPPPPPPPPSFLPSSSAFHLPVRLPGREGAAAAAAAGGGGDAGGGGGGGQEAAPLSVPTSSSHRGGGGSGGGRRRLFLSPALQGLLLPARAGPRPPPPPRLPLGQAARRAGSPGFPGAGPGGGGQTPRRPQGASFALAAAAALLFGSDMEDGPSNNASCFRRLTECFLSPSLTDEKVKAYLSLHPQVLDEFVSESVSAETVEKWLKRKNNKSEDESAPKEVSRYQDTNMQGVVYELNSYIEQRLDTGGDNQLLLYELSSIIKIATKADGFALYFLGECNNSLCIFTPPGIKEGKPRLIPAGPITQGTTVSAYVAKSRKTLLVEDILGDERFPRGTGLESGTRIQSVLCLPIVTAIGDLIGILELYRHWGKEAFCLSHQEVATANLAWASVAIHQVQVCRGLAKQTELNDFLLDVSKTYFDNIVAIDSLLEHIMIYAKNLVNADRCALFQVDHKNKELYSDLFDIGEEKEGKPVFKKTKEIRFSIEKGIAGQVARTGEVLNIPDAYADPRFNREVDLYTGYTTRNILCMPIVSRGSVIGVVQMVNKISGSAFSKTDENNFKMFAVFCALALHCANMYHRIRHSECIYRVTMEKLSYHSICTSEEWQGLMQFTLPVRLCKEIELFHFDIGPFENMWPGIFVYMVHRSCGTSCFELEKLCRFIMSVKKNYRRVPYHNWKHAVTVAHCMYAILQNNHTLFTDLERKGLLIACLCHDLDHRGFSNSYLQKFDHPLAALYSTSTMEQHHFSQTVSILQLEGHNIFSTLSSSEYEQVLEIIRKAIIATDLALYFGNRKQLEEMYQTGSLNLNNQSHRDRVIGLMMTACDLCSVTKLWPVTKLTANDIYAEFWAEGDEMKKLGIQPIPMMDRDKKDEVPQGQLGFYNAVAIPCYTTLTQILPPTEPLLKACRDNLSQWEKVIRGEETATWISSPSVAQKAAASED

SMILES strings stand for the structures.

What all share (test): biochemical
Test [1] has as its target hPDE3B (Homo sapiens, UniProt Q13370). The protocol:
(§1) The PDE1 enzyme is reconstituted with 50% glycerol to 2.5 U/ml. […] The compounds are mixed and pre-incubated with the enzyme for 10 min at room temperature.
(§2) The reaction is incubated in dark at room temperature for 15 min.

For test [2], the target named is hPDE2A (Homo sapiens, UniProt O00408). On the procedure: as §1, §2
Test [3] addresses hPDE7B (Homo sapiens, UniProt Q9NP56). On the procedure: as §1, §2
Test [4] has as its target hPDE9A (Homo sapiens, UniProt O76083). On the procedure: as §1, §2
Test [5] concerns the target r-bovine PDE5A (Bos taurus, UniProt Q28156). The protocol:
as §1, §2

Test [6] deals with hPDE10A (Homo sapiens, UniProt Q9Y233). On the procedure:
as §1, §2

The IC50 is the concentration at which inhibition is half-maximal. The low end stands for higher potency, the high end for lower potency. As for `CN1C(=O)c2c(nn(Cc3ccc(-c4cccc(F)n4)cc3)c2Nc2ccccc2)N2C1=N[C@@H]1CCC[C@@H]12` [Compound 214], the IC50 amounted to 3120 nM in test [1]; 3660 nM in test [2]; 355 nM in test [3]; 16600 nM in test [4]; 632 nM in test [5]; 1820 nM in test [6].
